Assay results taken from publication PMC5888952 (Toxicological Sciences, 2018).

Test system: cryopreserved primary human hepatocytes (PHH) in 2Dsw culture
Test: Repeated-dose cytotoxicity
Details: any of the 3 PHH donors, up to 14 days repeated exposure

O=C(O)Cc1ccccc1Nc1c(Cl)cccc1Cl [diclofenac]
EC50 (50% reduction in viability, ATP): could not be attained
